Antibody variant affinities, Ab-91 heavy chain, assay 2

From the AlphaSeq antibody data of Engelhart et al. 2022 (doi:10.1038/s41597-022-01779-4), copy in the FLAb collection.

The target is the same throughout: PDVDLGDISGINAS, from the HR2 region of SARS-CoV-2 spike.

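Library AAYL51 holds single substitutions and randomly drawn double and triple substitutions in the CDRs. The scFvs were displayed on barcoded MATa yeast, the peptide on MATalpha yeast. Mating (16 h, 30 °C) was followed by selection of diploids and sequencing of their barcodes. Read counts were normalised to the haploid input and turned into Kd by a linear fit to BCL2-family pairs of known affinity, for each replicate. The assay was run in three technical replicates.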

Parent: Ab-91, a human scFv built as VL, three GGGGS repeats, VH. Only the CDRs of the heavy chain vary.
VL: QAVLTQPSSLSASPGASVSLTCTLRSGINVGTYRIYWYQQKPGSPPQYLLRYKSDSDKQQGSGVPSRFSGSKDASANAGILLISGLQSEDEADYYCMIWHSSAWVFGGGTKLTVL
VH: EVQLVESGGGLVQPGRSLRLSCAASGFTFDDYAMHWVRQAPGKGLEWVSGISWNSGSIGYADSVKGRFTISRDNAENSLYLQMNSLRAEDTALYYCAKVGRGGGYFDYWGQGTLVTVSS

Changes read parent residue, position, new residue, counted from the first residue of the VH shown. Numbers give log10(Kd / nM), so 0 is 1 nM and 3 is 1 µM. Smaller is tighter. A mean of the replicates is given; it leaves out those without a signal. "ND" means that the variant was in the library but no mating with the target was seen in that replicate; the authors take this as a sign of poor binding, and no number exists. As a blank, each scFv also met three strains without target: over library AAYL51, 21% of these pairings were detected, typically at 4.54 and seldom below 3.26. The control count says in how many pairings with the empty strains this scFv gave a signal, with their mean in brackets. In this assay the parent's reference entry averaged 1.86; its copy inside this library read 0.88.

| changes | log10 Kd, replicates | mean, log10 nM | empty controls |
|---|---|---|---|
| D30G S52N G104A | ND / 3.50 / ND | 3.50 | 2/9 (4.58) |
| T28A A61T G102Q | ND / ND / ND | ND | 0/9 |
| T28S D30I S52C | 5.36 / 4.23 / ND | 4.80 | 6/9 (4.74) |
| F27R V99M G100W | ND / ND / ND | ND | 0/9 |
| Y32S Y60M V99R | ND / ND / ND | ND | 1/9 (4.11) |
| D31A S52E N54E | 4.88 / 4.24 / ND | 4.56 | 5/9 (4.88) |
| D30L A33D S63P | 5.52 / 4.49 / ND | 5.00 | 5/9 (4.95) |
| A33P N54A G59I | ND / ND / ND | ND | 0/9 |
| T28Y K65M | ND / ND / ND | ND | 0/9 |
| G26T D62T F106Y | ND / ND / ND | ND | 0/9 |
| H35E S52P Y105N | 5.52 / ND / ND | 5.52 | 1/9 (4.64) |
| S55D R101V Y105Q | 4.83 / ND / ND | 4.83 | 5/9 (4.94) |
| F29N A33H | 4.63 / 5.69 / 3.73 | 4.68 | 3/9 (4.43) |
| S57V V64H K65W | ND / ND / ND | ND | 4/9 (3.85) |
| M34T S55I Y105G | ND / ND / ND | ND | 0/9 |
| H35Y I51R G102V | ND / 4.19 / ND | 4.19 | 3/9 (3.95) |
| F27K S52W Y108R | ND / ND / ND | ND | 0/9 |
| G26F A61E | ND / ND / ND | ND | 2/9 (4.18) |
| V64Y K65Q | 2.01 / 2.05 / 1.94 | 2.00 | 3/9 (5.69) |
| D31K A33N D107E | ND / ND / ND | ND | 1/9 (3.54) |
| H35N Y60S Y105H | ND / ND / ND | ND | 0/9 |
| A33T Y60F G100K | ND / 3.62 / ND | 3.62 | 2/9 (3.86) |
| D31C I58E Y105K | ND / ND / ND | ND | 1/9 (4.20) |
| D30T S52K Y105L | ND / ND / ND | ND | 0/9 |
| Y60D G104P D107K | ND / ND / ND | ND | 1/9 (4.19) |
| D31E H35G G102R | ND / ND / ND | ND | 0/9 |
| T28L S63T D107F | 4.22 / 4.05 / 5.65 | 4.64 | 6/9 (4.72) |
| S55K S63N Y105D | 4.33 / 3.01 / 3.59 | 3.64 | 1/9 (4.54) |
| Y32L I58D F106P | ND / ND / ND | ND | 0/9 |
| Y60S V64G G103A | ND / ND / ND | ND | 1/9 (2.03) |
| I58K G59A G102R | 4.20 / ND / 3.09 | 3.65 | 3/9 (4.35) |
| F27N N54Y G104F | ND / ND / ND | ND | 1/9 (3.57) |
| G26M S52M V64H | ND / ND / ND | ND | 1/9 (3.87) |
| G26V F29H A33K | 3.98 / 3.80 / 5.02 | 4.27 | 1/9 (4.18) |
| S63A D107V | 4.73 / 4.17 / ND | 4.45 | 1/9 (4.70) |
| F27T M34L G100A | ND / 4.96 / ND | 4.96 | 1/9 (4.45) |
| G59R D62S Y105Q | ND / ND / 4.71 | 4.71 | 0/9 |

Excerpt, the final 2 entries:

{"changes": "F27T M34L G100A", "log10 Kd, replicates": "ND / 4.96 / ND", "mean, log10 nM": "4.96", "empty controls": "1/9 (4.45)"}
{"changes": "G59R D62S Y105Q", "log10 Kd, replicates": "ND / ND / 4.71", "mean, log10 nM": "4.71", "empty controls": "0/9"}